# This is a selection; strong and weak results do not stand in their true shares. The source made the active and inactive calls.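 The calls were made as follows: active = calcium fluorescence response, raw or row-and-column corrected B-score, differing from the plate sample mean either way at a set confidence level, mostly lower; inactive = the rest.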
# Amino acid sequences for entries named in this document (tags omitted). A change or cut given only in a name is not applied to a line headed by its entry.
# UniProt P08482: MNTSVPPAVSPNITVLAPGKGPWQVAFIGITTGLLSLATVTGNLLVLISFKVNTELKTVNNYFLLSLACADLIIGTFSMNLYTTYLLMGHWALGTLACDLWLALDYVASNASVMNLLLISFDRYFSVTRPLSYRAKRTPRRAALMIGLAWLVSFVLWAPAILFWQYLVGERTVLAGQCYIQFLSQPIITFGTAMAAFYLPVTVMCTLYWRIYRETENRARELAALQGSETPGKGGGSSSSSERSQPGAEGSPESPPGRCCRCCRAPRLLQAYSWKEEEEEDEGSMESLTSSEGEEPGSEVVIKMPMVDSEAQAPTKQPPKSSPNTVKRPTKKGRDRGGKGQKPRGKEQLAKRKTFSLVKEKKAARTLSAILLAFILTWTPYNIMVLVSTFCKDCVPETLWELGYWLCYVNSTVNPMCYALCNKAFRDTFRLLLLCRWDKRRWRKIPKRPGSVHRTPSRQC
# Biological target: Muscarinic acetylcholine receptor M1 (Rattus norvegicus) (UniProt P08482)
# Experiment: antagonists of rat M1 muscarinic receptor (AID 628)
# Conditions: CHO-M1 cells, Fluo-4 calcium, ACh EC80 antagonist mode; at 10 µM; hits give low values
row,SMILES,B-score
1,C[N+]1(C)[C@@H]2CC(OC(=O)[C@H](CO)c3ccccc3)C[C@H]1[C@@H]1O[C@@H]12 (some centres not stated),active: -12.1
2,COc1ccc(CCN2CCC(Nc3nc4ccccc4n3Cc3ccc(F)cc3)CC2)cc1,active: -14.3

# — PubChem BioAssay AID628 (Vanderbilt High Throughput Screening Facility, 2007)
